# Tested on: Mouse natural Treg cells
# Assay: Treg cell proliferation in 3-day culture with anti-CD3/anti-CD28 and IL-2
# Assay type: cell-based
# Settings: IL-2 at 5-100 U/ml, 3 days, 1% or 21% O2
# Text: Mouse natural Treg cells were isolated from the spleen and lymph nodes according to methods known in the art. Briefly, the methods were based on using monoclonal antibodies against cell surface proteins which are predominantly expressed on Treg cells. Using fluorochrome-conjugated antibodies, Treg cells were labeled and isolated by magnetic cell sorting. The cells were labeled with anti-HSA (CD24) and anti-CD8 mAbs using methods known in the art, and CD24+ and CD8− cells were depleted using magnetically assisted cell sorting (“MACS”) to enrich for CD4+ cells. CD25+ cells were further purified from this fraction by positive selection. The purity of CD4+CD25+ cells was >93%, with greater than 95% of cells CD4+CD25+FoxP3+.
# Purified CD4+CD25+ cells (1×10^5 cells/well) were stimulated with immobilized anti-CD3 and anti-CD28 mAbs and cultured under 1% or 21% O2 for 3 days. Culture media: RPMI1640 (Invitrogen) supplemented with 10% fetal calf serum (Hyclone); culturing condition: 37° C., 5% CO2 using a NAPCO7000 incubator capable of controlling oxygen concentration; humidity: >95%, cell density: 5×10^5 cells/ml. Normoxic cell culture conditions were 5% C O2, 95% air (21% oxygen). For hypoxic culture conditions, ambient air was diluted with pure nitrogen to reduce the O2 concentration to 1%. Human recombinant IL-2 was added to the culture at 5-100 U/ml for the entire culture period.
substance,measurement,value
IL-2: Human recombinant IL-2 added to the culture at 5-100 U/ml,Treg cell proliferation,dependent on the dose of IL-2
